Test results published in patent US20240052028A1, “ENHANCEMENT OF ANTI-TUMOR PHAGOCYTOSIS” (The Board of Trustees of the Leland Stanford Junior …, priority 2020, published 2024).

Assays:
[1] = system: OVCAR8 cells; experiment: Phagocytosis assay, uptake of OVCAR8 cells by J774 macrophages with anti-EGFR/cetuximab; format: cell-based, mouse; details: cells without APMAP deficiency, J774 macrophages (FIG. 3B)
Protocol: (§1) Time-lapse microscopy assay for phagocytosis J774 cells were lifted by scraping, counted, and plated in 24 well tissue culture plates at a density of 100,000 cells per well in 0.5 ml media 48 h prior to the start of the experiment. At 24 h after plating, media was aspirated and replaced with fresh media containing 10 ng ml^−1 lipopolysaccharide (LPS) (Sigma). On the day of the experiment, target cells that had been transduced with sgRNAs, co-expressed with GFP and PuroR, and selected with puromycin as described above, were lifted, pelleted, and counted. […] Total red intensity for each well, averaged over 16 images per well, was calculated after applying a threshold for red intensity that excluded most or all cells at the first time point using top-hat background subtraction. Reported values represent the mean total red fluorescence intensity at each timepoint, minus the total red fluorescence at the initial timepoint (to remove signal from occasional autofluorescent debris), normalized to the initial total green fluorescence signal (to account for small variations in target cell density), of duplicate, triplicate, or quadruplicate wells, as indicated in the legend. […]

[2] = system: NCI-H23 cells; experiment: Phagocytosis assay, uptake of NCI-H23 cells by J774 macrophages with anti-EGFR/cetuximab; format: cell-based, mouse; details: cells without APMAP deficiency, J774 macrophages (FIG. 3B)
Protocol: as §1

cetuximab was tested, and the “phagocytosis of OVCAR8 cells in the presence of cetuximab” value [1] was “not otherwise detectably phagocytosed” and the “phagocytosis of NCI-H23 cells in the presence of cetuximab” value [2] was “not otherwise detectably phagocytosed”.
